Experimental data reported in ChEMBL document CHEMBL4808148, “HDAC6 screening dataset using tau-based substrate in an enzymatic assay yields selective inhibitors and activators” (2021).
Only a part is listed here, and it is no random draw.

Molecular target: T1, Protein deacetylase HDAC6 (Homo sapiens) (UniProt Q9UBN7)
T1 sequence (whole entry): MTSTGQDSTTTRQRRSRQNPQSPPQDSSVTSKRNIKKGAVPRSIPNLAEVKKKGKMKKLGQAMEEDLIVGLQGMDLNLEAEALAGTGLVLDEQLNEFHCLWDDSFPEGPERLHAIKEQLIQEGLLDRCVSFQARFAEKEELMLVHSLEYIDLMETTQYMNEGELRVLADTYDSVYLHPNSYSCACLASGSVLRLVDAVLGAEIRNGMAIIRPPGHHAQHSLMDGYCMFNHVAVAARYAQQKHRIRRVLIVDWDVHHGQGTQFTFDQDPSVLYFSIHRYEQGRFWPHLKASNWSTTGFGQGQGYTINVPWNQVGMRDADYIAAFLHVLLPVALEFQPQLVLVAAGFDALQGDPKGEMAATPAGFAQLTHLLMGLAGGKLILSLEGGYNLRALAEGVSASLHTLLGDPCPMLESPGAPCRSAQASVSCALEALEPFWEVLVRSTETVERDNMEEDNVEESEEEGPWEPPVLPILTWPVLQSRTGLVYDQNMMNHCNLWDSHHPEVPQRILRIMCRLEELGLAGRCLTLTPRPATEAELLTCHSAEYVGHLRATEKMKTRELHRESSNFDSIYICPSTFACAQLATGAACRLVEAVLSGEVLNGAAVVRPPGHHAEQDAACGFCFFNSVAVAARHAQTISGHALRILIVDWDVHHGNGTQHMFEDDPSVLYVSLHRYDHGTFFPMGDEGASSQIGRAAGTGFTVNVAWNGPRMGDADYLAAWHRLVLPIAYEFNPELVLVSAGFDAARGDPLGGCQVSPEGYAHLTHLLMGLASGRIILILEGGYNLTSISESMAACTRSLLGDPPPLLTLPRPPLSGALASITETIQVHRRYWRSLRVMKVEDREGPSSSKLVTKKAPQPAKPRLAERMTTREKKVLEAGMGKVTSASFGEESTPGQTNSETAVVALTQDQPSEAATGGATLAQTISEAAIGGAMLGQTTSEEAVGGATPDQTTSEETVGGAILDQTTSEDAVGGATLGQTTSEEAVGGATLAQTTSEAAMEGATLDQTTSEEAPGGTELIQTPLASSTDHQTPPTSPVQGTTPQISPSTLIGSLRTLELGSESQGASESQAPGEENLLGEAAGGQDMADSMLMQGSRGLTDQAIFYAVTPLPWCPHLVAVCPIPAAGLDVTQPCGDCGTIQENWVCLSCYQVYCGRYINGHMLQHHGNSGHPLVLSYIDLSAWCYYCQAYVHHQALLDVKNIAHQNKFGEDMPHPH
Settings: at 10 µM

Question: `CN(CCCl)CCCl` was tested. Which inhibition did it give?
Answer: -0.07%

Question: `CCC(=O)N(c1ccccc1)C1(COC)CCN(CCc2cccs2)CC1` was tested. Which inhibition did it give?
Answer: 0.91%
